The structures appear in SMILES notation. The list shows a part of the results, in another mix than the full data. Active and inactive are the calls of the source.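 Rule for the calls: active = GTP binding activity at least 20 points away from 100%, either lowered or raised; inconclusive = signal likely due to the compound's own green fluorescence; inactive = the rest.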

In this test the target is Ras-related protein Rab-2A (Canis lupus familiaris) (UniProt P61105). Briefly: modulators of GTP binding to Rab2A wildtype, primary screen, biochemical, dog, bead-based flow cytometry, multiplex (AID 760).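 Note: 0% = beads with excess unlabeled GTP and 100% = no-compound control corrected for plate trend.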 Conditions: GST-Rab2 wt beads, Bodipy-GTP binding, at 10 µM. In general terms: A flow cytometer gives signals particle by particle.
As for `Cc1cc(C)cc(OP(C)(=O)Nc2ccc(C)cc2C)c1` (stereo not drawn), the GTP binding activity was inactive: 99%.

Regarding `CCOC(=O)c1ccc(NP(C)(=O)Oc2cc(C)cc(C)c2)cc1` (stereo not drawn), the GTP binding activity was inactive: 103%.

Regarding `CP(=O)(Nc1cccc(Br)c1)Oc1ccccc1` (stereo not drawn), the GTP binding activity was inactive: 96%. On to `Cc1cc(C)cc(OP(C)(=O)Nc2ccccn2)c1` (stereo not drawn), for which the GTP binding activity is inactive: 102%.

For the molecule `Cc1ccc(C)c(NP(C)(=O)Oc2ccccc2)c1` (stereo not drawn), the GTP binding activity is inactive: 100%. In the case of `CC1=NCCc2c1[nH]c1ccccc21.O=[N+]([O-])c1cc([N+](=O)[O-])c(O)c([N+](=O)[O-])c1` it was inactive: 90%; in that of `COc1ccccc1OP(C)(=O)Nc1c(C)cccc1C` (stereo not drawn), inactive: 101%. Regarding `CN1CCCCC1COC(=O)C1(O)c2ccccc2CCc2ccccc21` (stereo not drawn), the GTP binding activity was inactive: 100%. As for `CP(=O)(Nc1ccc(SC(F)(F)F)cc1)Oc1ccccc1` (stereo not drawn), the GTP binding activity was inactive: 98%. In the case of `CCCOc1ccc(NP(C)(=O)Oc2ccc(Cl)cc2)cc1` (stereo not drawn) it was inactive: 94%; in that of `O=[N+]([O-])c1cc([N+](=O)[O-])c(-n2nnc3ccccc32)c([N+](=O)[O-])c1`, inactive: 93%; in that of `Cc1nc2ccc3ccccc3c2s1.O=[N+]([O-])c1cc([N+](=O)[O-])c(O)c([N+](=O)[O-])c1`, inactive: 97%. With `Cc1cccc(C)c1OP(C)(=O)Nc1ccc(SC(F)(F)F)cc1` (stereo not drawn), the GTP binding activity was inactive: 100%. In the case of `CP(=O)(Oc1ccccc1)OC(c1ccccc1)C(F)(F)F` (stereo not drawn) it was inactive: 99%. In the case of `CP(=O)(NC(=O)Nc1ccccc1)Oc1ccccc1` (stereo not drawn) it was inactive: 98%; in that of `Cc1cc(C)cc(OP(C)(=O)Nc2ccc(SC(F)(F)F)cc2)c1` (stereo not drawn), inactive: 99%; in that of `CCOP(C)(=S)SCC(=O)NC(C)C(=O)O` (stereo not drawn), inactive: 105%.

Take `CCOC(=O)c1ccc(NP(C)(=O)Oc2ccc(OC)cc2)cc1` (stereo not drawn): the GTP binding activity is inactive: 102%.

Consider `CP(=O)(Nc1ccccn1)Oc1ccc(Cl)cc1` (stereo not drawn), for which the GTP binding activity was inactive: 92%.

On to `CP(=S)(Nn1cnnc1)Oc1ccccc1` (stereo not drawn), for which the GTP binding activity was inactive: 104%. Under `COc1ccccc1OP(C)(=O)Nc1ccccc1` (stereo not drawn) stands inactive: 98%; under `CP(=O)(Nc1ccccc1Br)Oc1ccccc1` (stereo not drawn), inactive: 102%. Take `CC(C)(C)c1ccc(OP(C)(=O)Nc2ccc(SC(F)(F)F)cc2)cc1` (stereo not drawn): the GTP binding activity was inactive: 100%. Regarding `Cc1cccc(C)c1OP(C)(N)=O` (stereo not drawn), the GTP binding activity was inactive: 100%. Under `O=[N+]([O-])c1ccc2c(c1)C=Nc1ccccc1O2` stands inactive: 92%; under `CCOC(=O)c1ccc(NP(C)(=O)Oc2ccccc2)cc1` (stereo not drawn), inactive: 100%. For `COc1ccccc1OP(C)(=O)Nc1ccc(C)cc1` (stereo not drawn), the GTP binding activity was inactive: 97%. Consider `Cc1ccc(NP(C)(=O)Oc2ccccc2)c(C)c1` (stereo not drawn), for which the GTP binding activity is inactive: 97%.

As to `COc1ccccc1OP(C)(=O)Nc1cc(Cl)ccc1C` (stereo not drawn), the GTP binding activity was inactive: 99%. On to `COc1ccc(OP(C)(=O)Nc2cccc(F)c2)cc1` (stereo not drawn), for which the GTP binding activity was inactive: 97%. In the case of `Cc1cc(C)cc(OP(C)(N)=O)c1` (stereo not drawn) it was inactive: 98%; in that of `CCN(CC)CCCOC(=O)C(O)(c1ccccc1)c1ccccc1`, inactive: 101%.

Turning to `CN(C)CCOC(=O)C(O)(c1ccccc1)C1CCCC1` (stereo not drawn), the GTP binding activity is inactive: 95%. In the case of `COc1ccc(OP(C)(=O)Nc2ccccn2)cc1` (stereo not drawn), the GTP binding activity was inactive: 95%.

As for `O=[N+]([O-])c1cc([N+](=O)[O-])c(Nc2ccccn2)c([N+](=O)[O-])c1`, the GTP binding activity was inactive: 99%. On to `Cc1c(NP(C)(=O)Oc2ccc(C(C)C)cc2)c(=O)n(-c2ccccc2)n1C` (stereo not drawn), for which the GTP binding activity is inactive: 101%. On to `CCc1ccc(OP(C)(=O)O)cc1`, for which the GTP binding activity is inactive: 100%. On to `CP(=O)(Nc1ccccn1)Oc1ccccc1` (stereo not drawn), for which the GTP binding activity was inactive: 103%.

On to `COc1ccccc1OP(C)(=O)Nc1ccc(C)cc1C` (stereo not drawn), for which the GTP binding activity is inactive: 99%. For `Cc1cc(C)cc(OP(C)(=O)Nc2cccc(C(F)(F)F)c2)c1` (stereo not drawn), the GTP binding activity was inactive: 96%.

For `COc1ccc(OP(C)(=O)Nc2ccccc2Br)cc1` (stereo not drawn), the GTP binding activity is inactive: 97%. Under `COc1ccccc1OP(C)(=O)Nc1ccc(C)c(C)c1` (stereo not drawn) stands inactive: 97%; under `Cc1nc2ccc3ccccc3c2o1.O=[N+]([O-])c1cc([N+](=O)[O-])c(O)c([N+](=O)[O-])c1`, inactive: 103%. Turning to `CP(=O)(OCCOc1ccccc1)OCCOc1ccccc1`, the GTP binding activity was inactive: 95%. As for `CP(=O)(Nc1ccc(Cl)cc1Cl)Oc1ccccc1` (stereo not drawn), the GTP binding activity was inactive: 97%. In the case of `CP(=O)(OC12CC3CC(CC(C3)C1)C2)OC12CC3CC(CC(C3)C1)C2` it was inactive: 100%; in that of `CCOC(=O)c1ccc(NP(C)(=O)Oc2ccc(Cl)cc2)cc1` (stereo not drawn), inactive: 95%; in that of `CCN(CC)CC(O)COC(=O)C(O)(c1ccccc1)C1CCCCC1` (stereo not drawn), inactive: 104%. For `COc1ccc(OP(C)(=O)Nc2ccc(Br)cc2)cc1` (stereo not drawn), the GTP binding activity is inactive: 98%.

As for `CP(=O)(Oc1ccccc1)N1CCOC1=O` (stereo not drawn), the GTP binding activity was inactive: 102%. Take `CCc1ccc(OP(C)(=O)Nc2cccnc2)cc1` (stereo not drawn): the GTP binding activity is inactive: 93%. In the case of `CP(=O)(Nc1ccc(Cl)cc1)Oc1ccc(F)cc1` (stereo not drawn) it was inactive: 102%; in that of `CC(C)(C)c1ccc(OP(C)(=O)O)cc1`, inactive: 106%. In the case of `COc1ccccc1OP(C)(=O)Nc1ccccc1Br` (stereo not drawn) it was inactive: 95%. For `CN(C)C(=O)c1c([N+](=O)[O-])cc([N+](=O)[O-])cc1[N+](=O)[O-]`, the GTP binding activity is inactive: 102%. Consider `CCOP(C)(=S)SCC(=O)NC(C)(CC)C(=O)O` (stereo not drawn), for which the GTP binding activity is inactive: 99%. On to `CP(=O)(Nc1ccc2c(c1)OCCO2)Oc1ccccc1` (stereo not drawn), for which the GTP binding activity is inactive: 105%. In the case of `Cc1ccccc1NP(C)(=O)Nc1ccccc1C` it was inactive: 96%; in that of `COc1ccc(OP(C)(=O)Nc2cccc(Br)c2)cc1` (stereo not drawn), inactive: 99%. In the case of `COc1ccc(NP(C)(=O)Oc2ccccc2OC)cc1` (stereo not drawn) it was inactive: 101%. Under `CN(C)CCOC(=O)C(O)(c1ccccc1)C1CCCCC1` (stereo not drawn) stands inactive: 98%.

Turning to `O=[N+]([O-])c1cc([N+](=O)[O-])c(NCC2CCS(=O)(=O)C2)c([N+](=O)[O-])c1` (stereo not drawn), the GTP binding activity was inactive: 95%. Under `COc1ccc(OP(C)(=O)Nc2ccc(SC(F)(F)F)cc2)cc1` (stereo not drawn) stands inactive: 96%; under `CCOC(=O)c1ccc(NP(C)(=O)Oc2ccc(F)cc2)cc1` (stereo not drawn), inactive: 97%. Regarding `CCN(CC)CCCOC(=O)C(O)(c1ccccc1)C1CCCCC1` (stereo not drawn), the GTP binding activity is inactive: 98%. In the case of `CP(=O)(Nc1ccccc1)Oc1ccc(F)cc1` (stereo not drawn) it was inactive: 100%; in that of `CP(=O)(Nc1ccccc1F)Oc1ccccc1` (stereo not drawn), inactive: 95%. Under `O=C(OCCN1CCN(CCOCc2ccccc2)CC1)C(O)(c1ccccc1)c1ccccc1` stands inactive: 102%.
